Assays:
Format in all cases: in vivo
[1] = tested on: black bean aphids; assay: Aphids: seedling of the field bean with black bean aphids sprayed; dead and surviving aphids counted; conditions: Methoxychlor alone, I:P 100:0; stated logarithmically (3 = 10^^-3 g/cm^3)
Protocol: The experiments described in the following examples are carried out with the following representative examples of the propynyl benzyl ethers (P) of formula I having juvenile hormone-like activity, which can be utilized in combination with an insect-poison (I) to form the active substance for an insecticide composition.
The results for each example are provided in a table at the end thereof. The concentration for each LD50 determination is stated logarithmically in terms of the concentration of insect-poison (e.g. 3 =10^^-3 g/cm^3 = 1%). Said LD50 values define the concentration of insect-poison present at which 50% of the insects die or become crippled. In the case where the ratio of insect-poison to propynyl benzyl ether is 0:100 (I:P = 0:100), the LD50 values stated refer to the propynyl benzyl ether itself (and are not based on the insect-poison).
For each test, one seedling of the field bean with ca 50-100 black bean aphids is sprayed with a solution of the active ingredient(s) in acetone or an aqueous spray-wash of the active ingredient(s). The seedlings are individually placed in tubes in water. After 24 and 48 hours, the dead and surviving aphids are counted and the activity calculated in %.

[2] = tested on: flies; assay: Flies: placed in sprayed petri dishes; dead or crippled flies counted; conditions: Methoxychlor alone, I:P 100:0; after 24 hours; stated logarithmically (3 = 10^^-3 g/cm^3)
Protocol: For each test, two petri dishes are sprayed with a solution of the active ingredient(s) in acetone or an aqueous spray-wash of the active ingredient(s). The dosage for each treated surface is 10^^-5 g/cm^2 = 1 kg/ha. After 2-3 hours, 10 flies aged 4-5 days are placed in each petri dish. After 1, 3 and 24 hours, the flies which are dead or crippled are counted.

[3] = tested on: spider-mites; assay: Spider-mites on sprayed leaf discs, assessment based on the mortality of the spider-mites (W); conditions: Methoxychlor alone, I:P 100:0; stated logarithmically (3 = 10^^-3 g/cm^3)
Protocol: (§1) For each test, three beam leaf discs each with a 2-day infection and with 20-40 spider-mites and eggs are sprayed with a solution of the active ingredient(s) in acetone or an aqueous spray-wash of the active ingredient(s). The dosage for each treated surface is 10^^-5 g/cm^2 = 1 kg/ha. After 2 days, the discs are assessed for dead spider-mites and after 6 days for dead spider-mites and killed eggs. (Assessment scheme: from 0-5, where 0 = 0% and 5 = 100% mortality).
W = assessment based on the mortality of the spider-mites;

[4] = tested on: spider-mite eggs; assay: Spider-mites on sprayed leaf discs, assessment based on the mortality of the eggs (O); conditions: Methoxychlor alone, I:P 100:0; stated logarithmically (3 = 10^^-3 g/cm^3); 8640 min
Protocol: as §1
O = assessment based on the mortality of the eggs.

COc1ccc(C(c2ccc(OC)cc2)C(Cl)(Cl)Cl)cc1 [Methoxychlor, 1,1,1-trichloro-2,2,bis-(p-methoxyphenyl)-ethane, reference compound]
LD50 concentration based on insect-poison [1]: 3.3 | LD50 concentration based on insect-poison [2]: 3.8 | LD50 concentration based on insect-poison (W, mortality of the spider-mites) [3]: < 3 | LD50 concentration based on insect-poison (O, mortality of the eggs) [4]: < 3

— US3946040A, “Propynyl benzyl ethers” (Hoffmann-La Roche Inc., priority 1973, dated 1976)
